Experimental data published in patent publication US20250073184A1, “CANNABIGEROQUINONE COMPOUNDS, COMPOSITIONS INCLUDING SUCH COMPOUNDS, AND USES OF SUCH COMPOUNDS AND COMPOSITIONS” (Juva Life, Inc., priority 2021, published 2025).

Sequences of proteins named here, by UniProt entry; tags and fusion partners are left off.
UniProt P34972, whole entry: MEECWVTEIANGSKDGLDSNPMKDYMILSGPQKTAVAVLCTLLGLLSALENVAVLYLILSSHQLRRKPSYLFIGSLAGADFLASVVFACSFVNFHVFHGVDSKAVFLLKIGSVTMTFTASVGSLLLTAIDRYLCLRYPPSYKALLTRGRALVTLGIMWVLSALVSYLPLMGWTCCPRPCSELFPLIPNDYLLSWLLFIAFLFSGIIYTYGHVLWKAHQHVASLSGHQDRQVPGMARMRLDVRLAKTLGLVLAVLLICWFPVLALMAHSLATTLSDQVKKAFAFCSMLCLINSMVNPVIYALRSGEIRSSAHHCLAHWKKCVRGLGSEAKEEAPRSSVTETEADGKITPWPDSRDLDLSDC

Biological target: T1, cannabinoid receptor 2 (CNR2) (Homo sapiens, UniProt P34972)
T1 construct: host or cells: CHO-K1
Test: CB2 receptor agonist assay (cAMP Hunter eXpress, CNR2 CHO-K1 cells)
Type: cell-based
Description: The assays were performed in cAMP Hunter eXpress cells engineered to overexpress naturally Gi/Go-coupled wildtype cannabinoid receptor 1 (CNR1) or cannabinoid receptor 2 (CNR2) in CHO-K1 cell type. In these cells, CB1 and/or […] agonists inhibit production of intracellular cAMP in response to stimulation with Forskolin. cAMP levels are determined using luminogenic detection reagents provided with the Hunter eXpress cAMP detection kit.
• Assay ready CNR1 CHO-K1 cells were obtained from Eurofins/Discover X, cat #95-0071E2 • Assay ready CNR2 CHO-K1 cells were obtained from Eurofins/Discover X, cat #95-0183E2 • Hunter eXpress cAMP detection kit was also from Discover X. The kit includes all cAMP detection reagents, Forskolin, complete cell plating medium and cell assay buffer.
The Assay-Ready CNR1 CHO-K1 or CNR2 CHO-K1 cells were thawed and re-suspended in pre-warmed Assay Complete plating medium and inoculated into 96 well plate at a density of 30,000 cells in 100 μL. The plates with cells were incubated for 24 h at 37° C. in 5% CO2. […] The cells were stimulated with the Forskolin/compound buffer for 30 min. […] The plate was read on Biotek Synergy Neo2 reader in luminescent mode. […] Relative luminescence units (RLUs) were plotted against compound concentration to determine apparent EC50 values of the agonist compounds.

Cannabigerol Quinone [Formula VI]
selectivity as an agonist for CB2 receptor activation over CB1 receptor activation: good selectivity | Selectivity for CB2 over CB1 (fold) (ratio of agonist IC50 values): >25 fold
